# Test results taken from ChEMBL document CHEMBL1141509, “Development of pyridopyrimidines as potent Akt1/2 inhibitors” (Bioorg Med Chem Lett, 2008).
# Protein sequences, listed by entry. Tags and fused reporters are not part of them. Lines headed by an entry give the natural chain unless they say otherwise; changes in a name come on top.
# UniProt P31749: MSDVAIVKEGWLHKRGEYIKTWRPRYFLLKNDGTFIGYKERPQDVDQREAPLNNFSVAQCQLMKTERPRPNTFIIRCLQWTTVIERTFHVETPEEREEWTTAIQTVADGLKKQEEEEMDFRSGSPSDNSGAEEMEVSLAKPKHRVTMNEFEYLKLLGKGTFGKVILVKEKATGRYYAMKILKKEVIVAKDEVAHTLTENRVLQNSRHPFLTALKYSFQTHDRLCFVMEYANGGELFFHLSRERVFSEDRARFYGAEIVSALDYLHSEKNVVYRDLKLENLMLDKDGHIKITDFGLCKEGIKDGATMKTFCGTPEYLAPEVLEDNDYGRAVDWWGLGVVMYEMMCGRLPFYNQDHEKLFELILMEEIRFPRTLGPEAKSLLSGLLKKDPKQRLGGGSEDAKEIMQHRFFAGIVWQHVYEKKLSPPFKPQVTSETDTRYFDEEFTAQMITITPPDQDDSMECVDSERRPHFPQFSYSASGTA
# Key:
# [1] = target: T1, RAC-alpha serine/threonine-protein kinase (Homo sapiens, UniProt P31749); assay: Inhibition of human Akt1 in human C33A cells by immunoprecipitation kinase assay; type: cell-based, C-33-A
# [2] = target: T1, RAC-alpha serine/threonine-protein kinase; assay: Inhibition of Akt1
compound,measurement,setting,value
Nc1ncnc2nc(-c3ccc(CN4CCC(c5nc6ccc(F)cc6[nH]5)CC4)cc3)c(-c3ccccc3)cc12,IC50,[1],277 nM
same,IC50,[2],18 nM
